Results on twelve compounds are retold here after PubChem BioAssay (EPA / NIEHS).

This is a selection; strong and weak results do not stand in their true shares. The source made the active and inactive calls. How the source made its calls: active means hit-call score of the fitted dose curve at least 0.9, where 1 is the maximum; inactive means score below 0.9.

A short description of this test: ATG_TGFb_CIS: Attagene CIS-FACTORIAL HepG2 Assay for human Transforming Growth Factor (TGF) (AID 2282967). To be noted: HepG2 Attagene CIS TGFb reporter, mRNA transcription; actives raise or lower the signal. The procedure:
ATG_CIS is a cell-based, multiplexed-readout assay that uses HepG2, a human liver cell line, with measurements taken at 24 hours after chemical dosing in a 24-well plate.ATG_TGFb_CIS is one of 52 assay component(s) measured or calculated from the ATG_CIS assay. It is designed to make measurements of mRNA induction, a form of inducible reporter, as detected with fluorescence intensity signals by Reverse transcription polymerase chain reaction (RT-PCR) and Capillary electrophoresis technology.Data from the assay component ATG_TGFb_CIS was analyzed into 1 assay endpoint. This assay endpoint, ATG_TGFb_CIS, was analyzed with bidirectional fitting relative to DMSO as the negative control and baseline of activity. Using a type of inducible reporter, measures of mRNA for gain or loss-of-signal activity can be used to understand the reporter gene at the transcription factor-level as they relate to the gene TGFB1. Furthermore, this assay endpoint can be referred to as a primary readout, because this assay has produced multiple assay endpoints where this one serves a reporter gene function. To generalize the intended target to other relatable targets, this assay endpoint is annotated to the growth factor intended target family, where the subfamily is transforming growth factor beta.
Human liver HepG2 cells are transiently transfected with multiple reporter transcription units (MRTUs) in 6-well plates using FuGene 6 reagent (Roche; 3 ml FuGene/1 mg DNA). The MRTU constructs are regulated by a cis-regulating element (promoter). […] A major difference between the CIS and TRANS system is that in CIS activities of endogenous TFs are measured, whereas the TRANS assay evaluates changes in activities of exogenous, chimeric NR-Gal4 proteins. […] At the end of 24 hour incubation, total RNA was isolated using TriZol reagent (Invitrogen). The isolated RNA is then reverse-transcribed using oligo(dT) primer and Mo-MLV reverse transcriptase (Invitrogen) with DNAse I (Ambion) treatment for 30 min. The one-tenth of the produced cDNA was amplified by PCR using Taq DNA polymerase (Invitrogen) and two reporter sequence-specific primers. The PCR products were fluorescently labeled by primer extension with 6-arboxyfluorescein (6-FAM) 5'-labeled reporter sequence-specific primer (2 min at 95 C, 20 s at 68 C and 10 min at 72 C) and these products were digested with 5U of HpaI (New England Biolabs) for 2h at 37 C. The fragments were purified using Qiaquick PCR columns (Qiagen), analyzed on an ABI 3130xL genetic analyzer (Applied Biosystems) with peak positions identified by using a set of X-rhodamine (ROX)-labeled MapMarker1000 molecular weight standards (BioVentures). The raw capillary electrophoresis data was processed using Attagraph software (Attagene).
Take `COc1ccc([N+](=O)[O-])cc1[N+](=O)[O-]`: the call was inactive.

As to `CN(C)CCCl`, the compound was called inactive.

For `Cc1ccc([N+](=O)[O-])cc1[N+](=O)[O-]`, the outcome was inactive.

Turning to `Cc1ccc([N+](=O)[O-])c([N+](=O)[O-])c1`, the compound was called inactive.

For `N#CBr`, the outcome was inactive.

For the compound `CC(C)OP(C)(=O)OC(C)C`, the compound was called inactive.

With `Cc1cccc([N+](=O)[O-])c1[N+](=O)[O-]`, the outcome was inactive.

Turning to `CC(C)N(CCO)C(C)C`, the call was inactive.

`COP(C)(=O)OC`: the result was inactive.

`O=[N+]([O-])c1cccc([N+](=O)[O-])c1`: the compound was called inactive.

Regarding `O=[N+]([O-])OCC(CO[N+](=O)[O-])(CO[N+](=O)[O-])CO[N+](=O)[O-]`, the compound was called inactive.

For the compound `Cc1c([N+](=O)[O-])cccc1[N+](=O)[O-]`, the compound was called inactive.
